Measurements published in ChEMBL document CHEMBL4354879, “Bioisosteric Discovery of NPA101.3, a Second-Generation RET/VEGFR2 Inhibitor Optimized for Single-Agent Polypharmacology” (J Med Chem, 2020).

Species on record: Homo sapiens
Test: Selectivity ratio of IC50 for human ERG expressed in HEK293 cells to IC50 for recombinant human GST-tagged RET cytoplasmic domain (658 to 1114 residues) expressed in baculovirus expression system

`CC(C)(C)c1cc(NC(=O)Cc2ccc(-n3cnc4cc(-c5ccc(S(C)(=O)=O)cc5)ccc43)cc2)no1` showed a Ratio IC50 of over 7000.
